Target: C-Raf FL (full-length C-Raf protein, Y340E and Y341E activating mutations) (Homo sapiens (Human), UniProt P04049, Y340E/Y341E)
Format: biochemical
Settings: Table 2; AlphaScreen, 1 hour reaction; read-out: c-Raf FL IC-50

Amino acid sequences for entries named in this document (tags omitted).
UniProt P04049, whole entry Y340E/Y341E: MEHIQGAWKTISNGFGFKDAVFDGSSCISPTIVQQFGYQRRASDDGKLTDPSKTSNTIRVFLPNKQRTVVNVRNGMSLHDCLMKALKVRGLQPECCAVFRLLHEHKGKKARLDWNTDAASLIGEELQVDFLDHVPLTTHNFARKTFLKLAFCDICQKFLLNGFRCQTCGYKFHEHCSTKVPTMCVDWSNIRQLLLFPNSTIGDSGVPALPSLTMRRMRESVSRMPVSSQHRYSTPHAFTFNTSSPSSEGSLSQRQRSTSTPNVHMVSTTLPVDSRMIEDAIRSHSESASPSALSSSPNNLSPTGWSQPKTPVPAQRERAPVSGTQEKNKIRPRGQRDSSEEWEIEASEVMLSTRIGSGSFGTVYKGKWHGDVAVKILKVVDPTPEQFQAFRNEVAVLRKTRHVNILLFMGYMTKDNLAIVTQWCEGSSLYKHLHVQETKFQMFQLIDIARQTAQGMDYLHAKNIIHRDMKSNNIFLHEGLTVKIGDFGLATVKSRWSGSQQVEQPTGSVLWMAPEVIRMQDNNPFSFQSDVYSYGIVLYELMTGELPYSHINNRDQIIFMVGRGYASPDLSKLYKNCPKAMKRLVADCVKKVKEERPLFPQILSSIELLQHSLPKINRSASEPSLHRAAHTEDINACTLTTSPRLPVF

Row | SMILES | IC50 [nM]
1 | Cc1ncc(NC(=O)c2ccnc(C(C)C)c2)cc1-c1cnc(OC2CCOCC2)c(N2CCOCC2)c1 [Example 313, 2-isopropyl-N-(2-methyl-5′-morpholino-6′-((tetrahydro-2H-pyran-4-yl)oxy)-[3,3′-bipyridin]-5-yl)isonicotinamide] | 1.7
2 | Cc1ncc(NC(=O)c2ccnc(C(F)(F)F)c2)cc1-c1cnc(OC2CCOCC2)c(N2CCOCC2)c1 [Example 314, N-(2-methyl-5′-morpholino-6′-((tetrahydro-2H-pyran-4-yl)oxy)-[3,3′-bipyridin]-5-yl)-2-(trifluoromethyl)isonicotinamide] | 1.6
3 | Cc1ncc(NC(=O)c2cccc(C(F)(F)F)c2)cc1-c1cnc(OC2CN(C)C2)c(N2CCOCC2)c1 [Example 321, N-(2-methyl-6′-((1-methylazetidin-3-yl)oxy)-5′-morpholino-[3,3′-bipyridin]-5-yl)-3-(trifluoromethyl)benzamide] | 8.5
4 | COc1ncc(-c2cc(NC(=O)c3ccnc(C(C)C)c3)cnc2C)cc1N1CCOCC1 [Example 323, 2-isopropyl-N-(6′-methoxy-2-methyl-5′-morpholino-[3,3′-bipyridin]-5-yl)isonicotinamide] | 2.8
5 | COc1ncc(-c2cc(NC(=O)c3ccnc(C(F)(F)F)c3)cnc2C)cc1N1CCOCC1 [Example 324, N-(6′-methoxy-2-methyl-5′-morpholino-[3,3′-bipyridin]-5-yl)-2-(trifluoromethyl)isonicotinamide] | 1.4
6 | Cc1ncc(NC(=O)c2cccc(C(F)(F)F)c2)cc1-c1cnc(OC2CNC2)c(N2CCOCC2)c1 [Example 325, N-(6′-(azetidin-3-yloxy)-2-methyl-5′-morpholino-[3,3′-bipyridin]-5-yl)-3-(trifluoromethyl)benzamide] | 62.3
7 | Cc1ncc(N(C)C(=O)c2cccc(C(F)(F)F)c2)cc1-c1cnc(OC2CCOCC2)c(N2CCOCC2)c1 [Example 328, N-methyl-N-(2-methyl-5′-morpholino-6′-((tetrahydro-2H-pyran-4-yl)oxy)-[3,3′-bipyridin]-5-yl)-3-(trifluoromethyl)benzamide] | 17.3
8 | CCN(C(=O)c1cccc(C(F)(F)F)c1)c1cnc(C)c(-c2cnc(OC3CCOCC3)c(N3CCOCC3)c2)c1 [Example 329, N-ethyl-N-(2-methyl-5′-morpholino-6′-((tetrahydro-2H-pyran-4-yl)oxy)-[3,3′-bipyridin]-5-yl)-3-(trifluoromethyl)benzamide] | 300
9 | CCCN(C(=O)c1cccc(C(F)(F)F)c1)c1cnc(C)c(-c2cnc(OC3CCOCC3)c(N3CCOCC3)c2)c1 [Example 330, N-(2-methyl-5′-morpholino-6′-((tetrahydro-2H-pyran-4-yl)oxy)-[3,3′-bipyridin]-5-yl)-N-propyl-3-(trifluoromethyl)benzamide] | 1300
10 | CCn1cc(-c2cc(NC(=O)c3ccnc(C(C)(C)C#N)c3)cnc2C)cc(N2CCOCC2)c1=O [Example 332, 2-(2-cyanopropan-2-yl)-N-(1′-ethyl-2-methyl-5′-morpholino-6′-oxo-1′,6′-dihydro-[3,3′-bipyridin]-5-yl)isonicotinamide] | 7.5
11 | Cc1ncc(NC(=O)c2cccc(C(F)(F)F)c2)cc1-c1cc(N2CCOCC2)c(=O)n(CCC#N)c1 [Example 333, N-(1′-(2-cyanoethyl)-2-methyl-5′-morpholino-6′-oxo-1′,6′-dihydro-[3,3′-bipyridin]-5-yl)-3-(trifluoromethyl)benzamide] | 1.5
12 | Cc1ccc(NC(=O)c2ccnc(C(C)(C)C#N)c2)cc1-c1cc(N2CCOCC2)c(=O)n(CCC#N)c1 [Example 335, N-(3-(1-(2-cyanoethyl)-5-morpholino-6-oxo-1,6-dihydropyridin-3-yl)-4-methylphenyl)-2-(2-cyanopropan-2-yl)isonicotinamide] | 2
13 | Cc1ccc(NC(=O)c2ccnc(C(C)(C)C#N)c2)cc1-c1cc(N2CCOCC2)c(=O)n(CC2(C)COC2)c1 [Example 338, 2-(2-cyanopropan-2-yl)-N-(4-methyl-3-(1-((3-methyloxetan-3-yl)methyl)-5-morpholino-6-oxo-1,6-dihydropyridin-3-yl)phenyl)isonicotinamide] | 6400
14 | Cc1ccc(NC(=O)c2cccc(C3(C#N)CC3)c2Cl)cc1-c1cc(N2CCOCC2)c(=O)n(C)c1 [Example 346, 2-chloro-3-(1-cyanocyclopropyl)-N-(4-methyl-3-(1-methyl-5-morpholino-6-oxo-1,6-dihydropyridin-3-yl)phenyl)benzamide] | 1.6
15 | Cc1ccc(NC(=O)c2cccc(C(C)(C)S(C)(=O)=O)c2)cc1-c1cc(N2CCOCC2)c(=O)n(C)c1 [Example 351, N-(4-methyl-3-(1-methyl-5-morpholino-6-oxo-1,6-dihydropyridin-3-yl)-phenyl)-3-(2-(methylsulfonyl)propan-2-yl)benzamide] | 3.8

Now those with a lower IC50, led by results:

Row | IC50 [nM] | SMILES
16 | 1.1 | COCCOc1ncc(-c2cc(NC(=O)c3cccc(C(F)(F)F)c3)cnc2C)cc1N1CCOCC1 [Example 312, N-(6′-(2-methoxyethoxy)-2-methyl-5′-morpholino-[3,3′-bipyridin]-5-yl)-3-(trifluoromethyl)benzamide]
17 | 0.3 | Cc1ncc(NC(=O)c2cccc(C(F)(F)F)c2)cc1-c1cnc(OC2COC2)c(N2CCOCC2)c1 [Example 315]
18 | 0.8 | Cc1ncc(NC(=O)c2cccc(C(F)(F)F)c2)cc1-c1cnc(O[C@H]2CC[C@H](O)CC2)c(N2CCOCC2)c1 [Example 316, N-(6′-(((1r,4r)-4-hydroxycyclohexyl)oxy)-2-methyl-5′-morpholino-[3,3′-bipyridin]-5-yl)-3-(trifluoromethyl)benzamide]
19 | 0.5 | Cc1ncc(NC(=O)c2cccc(C(F)(F)F)c2)cc1-c1cnc(O[C@H]2CC[C@@H](O)CC2)c(N2CCOCC2)c1 [Example 317, N-(6′-(((1s,4s)-4-hydroxycyclohexyl)oxy)-2-methyl-5′-morpholino-[3,3′-bipyridin]-5-yl)-3-(trifluoromethyl)benzamide]
20 | 0.5 | Cc1ncc(NC(=O)c2cccc(C(F)(F)F)c2)cc1-c1cnc(OC2CC3(COC3)C2)c(N2CCOCC2)c1 [Example 322, N-(6′-(2-oxaspiro[3.3]heptan-6-yloxy)-2-methyl-5′-morpholino-[3,3′-bipyridin]-5-yl)-3-(trifluoromethyl)benzamide]
21 | 1.1 | Cc1ncc(NC(=O)c2cccc(C(F)(F)F)c2)cc1-c1cnc(C(C)(C)C#N)c(N2CCOCC2)c1 [Example 326, N-(6′-(2-cyanopropan-2-yl)-2-methyl-5′-morpholino-[3,3′-bipyridin]-5-yl)-3-(trifluoromethyl)benzamide]
22 | 1 | Cc1ncc(NC(=O)c2cccc(C(F)(F)F)c2)cc1-c1cnc(CS(C)(=O)=O)c(N2CCOCC2)c1 [Example 327, N-(2-methyl-6′-((methylsulfonyl)methyl)-5′-morpholino-[3,3′-bipyridin]-5-yl)-3-(trifluoromethyl)benzamide]
23 | 0.7 | Cc1ccc(NC(=O)c2ccnc(C(C)(F)F)c2)cc1-c1cc(N2CCOCC2)c(=O)n(CCC#N)c1 [Example 334, N-(3-(1-(2-cyanoethyl)-5-morpholino-6-oxo-1,6-dihydropyridin-3-yl)-4-methylphenyl)-2-(1,1-difluoroethyl)isonicotinamide]
24 | 1.3 | Cc1ccc(NC(=O)c2cccc(C(F)F)c2)cc1-c1cc(N2CCOCC2)c(=O)n(CCC#N)c1 [Example 336, N-(3-(1-(2-cyanoethyl)-5-morpholino-6-oxo-1,6-dihydropyridin-3-yl)-4-methylphenyl)-3-(difluoromethyl)benzamide]
25 | 0.7 | COc1ccc(C(=O)Nc2ccc(C)c(-c3cc(N4CCOCC4)c(=O)n(C)c3)c2)cc1C(F)(F)F [Example 339, 4-methoxy-N-(4-methyl-3-(1-methyl-5-morpholino-6-oxo-1,6-dihydropyridin-3-yl)phenyl)-3-(trifluoromethyl)benzamide]
26 | 0.5 | CCC(F)(F)c1cc(C(=O)Nc2ccc(C)c(-c3cc(N4CCOCC4)c(=O)n(C)c3)c2)ccn1 [Example 341, 2-(1,1-difluoropropyl)-N-(4-methyl-3-(1-methyl-5-morpholino-6-oxo-1,6-dihydropyridin-3-yl)phenyl)isonicotinamide]
27 | 0.5 | CCOc1cc(C(=O)Nc2ccc(C)c(-c3cc(N4CCOCC4)c(=O)n(C)c3)c2)ccc1F [Example 344, 3-ethoxy-4-fluoro-N-(4-methyl-3-(1-methyl-5-morpholino-6-oxo-1,6-dihydropyridin-3-yl)phenyl)benzamide]
28 | 0.8 | Cc1ccc(NC(=O)c2ccnc(C(C)C)c2)cc1-c1cc(N2CCOCC2)c(=O)n(C)c1 [Example 348, 2-isopropyl-N-(4-methyl-3-(1-methyl-5-morpholino-6-oxo-1,6-dihydropyridin-3-yl)phenyl)isonicotinamide]
29 | 1.3 | Cc1ccc(NC(=O)c2cccc(-c3nnco3)c2)cc1-c1cc(N2CCOCC2)c(=O)n(C)c1 [Example 349, N-(4-methyl-3-(1-methyl-5-morpholino-6-oxo-1,6-dihydropyridin-3-yl)phenyl)-3-(1,3,4-oxadiazol-2-yl)benzamide]
30 | 0.2 | CCc1cc(C(=O)Nc2ccc(C)c(-c3cc(N4CCOCC4)c(=O)n(C)c3)c2)ccn1 [Example 353, 2-ethyl-N-(4-methyl-3-(1-methyl-5-morpholino-6-oxo-1,6-dihydropyridin-3-yl)phenyl)isonicotinamide]
31 | 0.2 | Cc1ccc(NC(=O)c2ccnc(C3CC3)c2)cc1-c1cc(N2CCOCC2)c(=O)n(C)c1 [Example 354, 2-cyclopropyl-N-(4-methyl-3-(1-methyl-5-morpholino-6-oxo-1,6-dihydropyridin-3-yl)phenyl)isonicotinamide]
32 | 0.6 | Cc1ccc(NC(=O)c2ccnc(C(C)(C)F)c2)cc1-c1cc(N2CCOCC2)c(=O)n(C)c1 [Example 355, 2-(2-fluoropropan-2-yl)-N-(4-methyl-3-(1-methyl-5-morpholino-6-oxo-1,6-dihydropyridin-3-yl)phenyl)isonicotinamide]
33 | 0.8 | Cc1ccc(NC(=O)c2ccnc(C3(C#N)CC3)c2)cc1-c1cc(N2CCOCC2)c(=O)n(C)c1 [Example 357, 2-(1-cyanocyclopropyl)-N-(4-methyl-3-(1-methyl-5-morpholino-6-oxo-1,6-dihydropyridin-3-yl)phenyl)isonicotinamide]
